The record followed here is PubChem BioAssay AID504467 (National Center for Advancing Translational Sciences (NCATS), 2011).

Only a part is listed here, and it is no random draw. Some of these compounds have results that are not shown, active ones among them. Inconclusive results are not listed. Active and inactive are the calls of the source. The call rests on the fitted dose curve; in most records, active means well fitted inhibition curve with a large enough effect; inconclusive means small, poorly fitted or top-dose-only effect, or effect the other way; inactive means flat fitted curve, though single readings scatter.
On the % scale 0 is the no-effect control and ±100 the full control effect.

The assay in a line: qHTS screen for small molecules that inhibit ELG1-dependent DNA repair in human embryonic kidney (HEK293T) cells expressing luciferase-tagged ELG1. Further: nearly all actives have a fitted effect of over 55% in size. The settings on record: HEK293T ELG1-luciferase reporter, luminescence, 16 h, DNA damage induced by 5-fluorouridine; at 46.1 µM (top of the series). A general note: In qHTS, concentration-response curves come from the screen itself.
For the compound `COc1ccc(Br)c(C(=O)NCC2(N3CCCCC3)CCCCC2)c1`, the activity change, negative = inhibition was inactive: 17.7%.
Regarding `CN(C)c1cccc(C(=O)NCC2(N(C)C)CCCCC2)c1`, the activity change, negative = inhibition is inactive: 16%.
The same measure for `O=C(OC1CN2CCC1CC2)C(CO)(c1ccccc1)c1ccccc1` (centres undefined): inactive: 4.51%.
Regarding `COc1ccc(Cl)cc1C(=O)NCC1(N(C)C)CCCCC1`, the activity change, negative = inhibition was inactive: 0.101%.
The same measure for `CN(C)C1(CNC(=O)c2ccc(Br)cc2)CCCCC1`: inactive: 4.61%.
On to `COc1cc(C(=O)NCC2(N(C)C)CCCCC2)c([N+](=O)[O-])cc1OC`, for which the activity change, negative = inhibition was inactive: 0%.
The value for `C=CCN1CCN(CCOC(=O)C(O)(c2ccccc2)c2ccccc2)CC1` was inactive: 5.41%.
Consider `COc1ccc(C(=O)NCC2(N(C)C)CCCCC2)cc1`, for which the activity change, negative = inhibition was inactive: 17.1%.
For `Cc1cc(C(=O)NCC2(N3CCCCC3)CCCCC2)ccc1[N+](=O)[O-]`, the activity change, negative = inhibition was inactive: -7.39%.
The value for `CCN1CCCC(OC(=O)C2(O)c3ccccc3C=Cc3ccccc32)C1` (centres undefined) was inactive: -10.4%; that for `Cc1ccccc1C(=O)NCC1(N2CCCCC2)CCCCC1` was inactive: 2.2%; that for `CN(C)C1CCCC1OC(=O)C(O)(c1ccccc1)c1ccccc1` (centres undefined) was inactive: 1.8%.
The same measure for `CN(C)c1ccc(C(=O)NCC2(N(C)C)CCCCC2)cc1`: inactive: 0%.
Turning to `CCN(CC)CC(C)C(C)OC(=O)C(O)(c1ccccc1)c1ccccc1` (centres undefined), the activity change, negative = inhibition is inactive: -5.34%.
Regarding `COc1cc(SC)ccc1C(=O)NCC1(N(C)C)CCCCC1`, the activity change, negative = inhibition was inactive: 3.46%.
The same measure for `CC(C)N1C(=O)CC2(CCN(CCOC(=O)C(O)(c3ccccc3)c3ccccc3)CC2)C1=O`: inactive: 11%; for `Cc1ccc(C(=O)NCC2(N3CCCCC3)CCCCC2)cc1`: inactive: 29.6%; for `O=C(NCC1(N2CCCCC2)CCCCC1)c1cc([N+](=O)[O-])ccc1Cl`: inactive: 22.6%.
The same measure for `CN1[C@@H]2CC[C@H]1CC(OC(=O)C(O)(c1ccccc1)c1ccccc1)C2` (some centres undefined): inactive: 14.1%.
